Experimental data: US20140058103A1, “Inhibitors of PI3K-Delta and Methods of Their Use and Manufacture” (Exelixis, Inc., priority 2010, published 2014)

By UniProt entry, the sequences of proteins in these tests, tags left out.
UniProt O00329, whole entry: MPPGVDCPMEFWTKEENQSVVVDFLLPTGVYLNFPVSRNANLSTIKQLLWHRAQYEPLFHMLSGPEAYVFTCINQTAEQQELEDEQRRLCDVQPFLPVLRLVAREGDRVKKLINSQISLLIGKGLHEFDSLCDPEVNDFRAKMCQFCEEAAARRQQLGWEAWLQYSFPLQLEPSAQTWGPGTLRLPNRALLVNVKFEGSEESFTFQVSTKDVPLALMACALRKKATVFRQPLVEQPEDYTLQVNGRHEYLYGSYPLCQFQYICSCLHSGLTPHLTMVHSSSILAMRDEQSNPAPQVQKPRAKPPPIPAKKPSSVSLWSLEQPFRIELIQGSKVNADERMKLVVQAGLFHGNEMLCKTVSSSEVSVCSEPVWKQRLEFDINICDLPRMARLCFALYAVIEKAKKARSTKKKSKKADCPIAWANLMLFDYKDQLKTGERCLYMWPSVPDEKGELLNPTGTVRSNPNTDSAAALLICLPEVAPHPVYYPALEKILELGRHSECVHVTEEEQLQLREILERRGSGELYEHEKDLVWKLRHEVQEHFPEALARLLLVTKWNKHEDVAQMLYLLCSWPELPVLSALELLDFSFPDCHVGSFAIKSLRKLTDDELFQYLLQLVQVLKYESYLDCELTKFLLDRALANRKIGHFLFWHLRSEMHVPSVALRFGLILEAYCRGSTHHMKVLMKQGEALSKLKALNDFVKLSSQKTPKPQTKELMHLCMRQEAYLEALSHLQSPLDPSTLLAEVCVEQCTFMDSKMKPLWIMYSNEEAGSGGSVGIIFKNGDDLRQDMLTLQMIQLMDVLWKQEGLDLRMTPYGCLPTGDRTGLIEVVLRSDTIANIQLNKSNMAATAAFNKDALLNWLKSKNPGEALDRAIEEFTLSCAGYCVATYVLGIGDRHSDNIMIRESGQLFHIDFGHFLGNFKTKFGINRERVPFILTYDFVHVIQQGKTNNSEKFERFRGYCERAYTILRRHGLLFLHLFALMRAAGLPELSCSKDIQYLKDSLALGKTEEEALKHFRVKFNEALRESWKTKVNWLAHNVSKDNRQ
UniProt P27986, whole entry partner: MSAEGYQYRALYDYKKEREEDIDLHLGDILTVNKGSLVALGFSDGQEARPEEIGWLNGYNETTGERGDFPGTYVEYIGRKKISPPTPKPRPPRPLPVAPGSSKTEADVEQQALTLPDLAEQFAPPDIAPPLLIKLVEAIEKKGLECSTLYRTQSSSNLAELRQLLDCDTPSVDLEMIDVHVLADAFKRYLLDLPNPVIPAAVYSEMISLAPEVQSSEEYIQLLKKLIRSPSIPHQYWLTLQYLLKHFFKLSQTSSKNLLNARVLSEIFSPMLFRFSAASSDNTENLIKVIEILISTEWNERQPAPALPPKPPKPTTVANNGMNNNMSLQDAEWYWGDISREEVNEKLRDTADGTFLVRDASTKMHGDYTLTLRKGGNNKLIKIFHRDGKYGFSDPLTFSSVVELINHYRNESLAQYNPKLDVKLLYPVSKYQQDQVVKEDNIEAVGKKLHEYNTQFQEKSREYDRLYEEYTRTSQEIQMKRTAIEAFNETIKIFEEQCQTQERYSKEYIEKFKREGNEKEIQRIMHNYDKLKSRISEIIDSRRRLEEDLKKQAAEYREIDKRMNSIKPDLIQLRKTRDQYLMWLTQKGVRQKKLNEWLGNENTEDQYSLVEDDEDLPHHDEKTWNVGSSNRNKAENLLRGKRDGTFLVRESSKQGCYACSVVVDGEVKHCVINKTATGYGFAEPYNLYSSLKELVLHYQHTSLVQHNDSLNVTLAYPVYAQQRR

Target: PI3K delta (Homo sapiens, UniProt O00329)
Assay: Luciferase-coupled chemiluminescence kinase assay (ATP consumption, KinaseGlo)
Settings: read-out: PI3K Delta Activity IC50

Cn1c(C(=O)NCC2CC2)nc2c(N3CCC(n4c(N)nc5ccccc54)CC3)ncnc21
IC50: 50 to 250 nM
